This note sets out measurements from paper PMC5773950 (British Journal of Pharmacology, 2018).

Amino acid sequences for entries named in this document (tags omitted).
UniProt P28223, whole entry: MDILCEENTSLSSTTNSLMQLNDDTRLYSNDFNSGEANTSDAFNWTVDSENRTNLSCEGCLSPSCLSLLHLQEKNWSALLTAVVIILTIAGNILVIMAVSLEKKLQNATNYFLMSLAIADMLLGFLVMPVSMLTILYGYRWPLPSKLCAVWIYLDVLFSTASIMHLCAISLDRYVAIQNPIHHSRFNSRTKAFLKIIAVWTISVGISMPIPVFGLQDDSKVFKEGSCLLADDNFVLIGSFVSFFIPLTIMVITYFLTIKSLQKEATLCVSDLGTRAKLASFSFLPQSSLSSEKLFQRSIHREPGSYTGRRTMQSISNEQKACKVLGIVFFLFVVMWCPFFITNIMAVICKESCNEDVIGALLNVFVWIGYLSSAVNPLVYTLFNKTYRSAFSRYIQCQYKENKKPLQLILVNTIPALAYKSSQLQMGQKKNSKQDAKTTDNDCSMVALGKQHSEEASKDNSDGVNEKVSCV
UniProt P08908, whole entry: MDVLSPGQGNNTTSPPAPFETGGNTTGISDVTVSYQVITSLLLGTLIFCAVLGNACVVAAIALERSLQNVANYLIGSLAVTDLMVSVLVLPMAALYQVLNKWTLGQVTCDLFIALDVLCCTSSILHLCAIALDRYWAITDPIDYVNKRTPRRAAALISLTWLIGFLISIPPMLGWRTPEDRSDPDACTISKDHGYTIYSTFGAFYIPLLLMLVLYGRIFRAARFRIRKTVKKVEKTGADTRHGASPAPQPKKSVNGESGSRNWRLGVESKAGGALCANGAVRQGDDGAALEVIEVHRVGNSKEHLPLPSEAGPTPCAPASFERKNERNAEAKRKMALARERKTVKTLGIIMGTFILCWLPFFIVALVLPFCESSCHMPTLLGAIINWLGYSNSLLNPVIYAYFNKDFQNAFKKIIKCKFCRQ

Each structure is given as a SMILES string.

For data set [1] the following is noted: human.
The conditions of data set [2]: human. The source holds these as a separate data set.
In the next data set the target is 5‐HT2A receptor (Homo sapiens, UniProt P28223). Kind of data set: biochemical. Format: binding.
Another data set deals with 5‐HT1A receptor (Homo sapiens, UniProt P08908). Kind of data set: biochemical. Format: binding.

One may read the Ki as a dissociation constant, usually derived from enzyme kinetics or from competition with a known ligand. Lower therefore signals a stronger hold on the target. Consider `CN1CC[C@]23c4c5ccc(O)c4O[C@H]2C(=O)CC[C@H]3[C@H]1C5` [Hydromorphone], for which, in data set [1], the “WHO database: cases of serotonin syndrome, only suspected cause” value is 3 and the “WHO database: cases of serotonin syndrome, only suspected cause or among others” value came to 41. Further, the “Medline database: number of published cases of serotonin syndrome” value in data set [2] is reported as 2. The molecule also yielded an inhibition constant (Ki) on 5‐HT2A receptor of over 13 µM. The Ki on 5‐HT1A receptor was over 17 µM.
